In PubChem BioAssay AID624416 (The Scripps Research Institute Molecular Screening Center, 2012) one finds inhibition data, which are given here for 2 compounds.

Only a part is listed here, and it is no random draw. Calls of active or inactive are those of the source. Rule as the data show it: active = inhibition above about 8.5%; inactive = the rest.

The test system of this assay is HIV-1 gp120 / PG9 antibody interaction. In words: binders of HIV-1 gp120 antibody PG9, primary screen, biochemical, TR-FRET (AID 624416). Conditions: TR-FRET gp120-PG9 antibody binding; at 6.7 µM; hits give high values.
Consider `CCC(=O)N(c1ccccc1)C1(COC)CCN(CCn2nnn(CC)c2=O)CC1`, for which the inhibition is inactive: -0.05%.

On to `CCC(=O)N(c1ccccc1)C1(COC)CCN(CCc2cccs2)CC1`, for which the inhibition was inactive: 0.26%.

By inhibition is commonly meant the change of the read-out against control, counted positive when it falls.
